According to US10807944B2, “HDAC inhibitor compounds and methods of treatment” (priority 2014, dated 2020):
pIC50: −log10 of the molar value.

Amino acid sequences for entries named in this document (tags omitted). A change or cut given only in a name is not applied to a line headed by its entry.
UniProt Q9UBN7: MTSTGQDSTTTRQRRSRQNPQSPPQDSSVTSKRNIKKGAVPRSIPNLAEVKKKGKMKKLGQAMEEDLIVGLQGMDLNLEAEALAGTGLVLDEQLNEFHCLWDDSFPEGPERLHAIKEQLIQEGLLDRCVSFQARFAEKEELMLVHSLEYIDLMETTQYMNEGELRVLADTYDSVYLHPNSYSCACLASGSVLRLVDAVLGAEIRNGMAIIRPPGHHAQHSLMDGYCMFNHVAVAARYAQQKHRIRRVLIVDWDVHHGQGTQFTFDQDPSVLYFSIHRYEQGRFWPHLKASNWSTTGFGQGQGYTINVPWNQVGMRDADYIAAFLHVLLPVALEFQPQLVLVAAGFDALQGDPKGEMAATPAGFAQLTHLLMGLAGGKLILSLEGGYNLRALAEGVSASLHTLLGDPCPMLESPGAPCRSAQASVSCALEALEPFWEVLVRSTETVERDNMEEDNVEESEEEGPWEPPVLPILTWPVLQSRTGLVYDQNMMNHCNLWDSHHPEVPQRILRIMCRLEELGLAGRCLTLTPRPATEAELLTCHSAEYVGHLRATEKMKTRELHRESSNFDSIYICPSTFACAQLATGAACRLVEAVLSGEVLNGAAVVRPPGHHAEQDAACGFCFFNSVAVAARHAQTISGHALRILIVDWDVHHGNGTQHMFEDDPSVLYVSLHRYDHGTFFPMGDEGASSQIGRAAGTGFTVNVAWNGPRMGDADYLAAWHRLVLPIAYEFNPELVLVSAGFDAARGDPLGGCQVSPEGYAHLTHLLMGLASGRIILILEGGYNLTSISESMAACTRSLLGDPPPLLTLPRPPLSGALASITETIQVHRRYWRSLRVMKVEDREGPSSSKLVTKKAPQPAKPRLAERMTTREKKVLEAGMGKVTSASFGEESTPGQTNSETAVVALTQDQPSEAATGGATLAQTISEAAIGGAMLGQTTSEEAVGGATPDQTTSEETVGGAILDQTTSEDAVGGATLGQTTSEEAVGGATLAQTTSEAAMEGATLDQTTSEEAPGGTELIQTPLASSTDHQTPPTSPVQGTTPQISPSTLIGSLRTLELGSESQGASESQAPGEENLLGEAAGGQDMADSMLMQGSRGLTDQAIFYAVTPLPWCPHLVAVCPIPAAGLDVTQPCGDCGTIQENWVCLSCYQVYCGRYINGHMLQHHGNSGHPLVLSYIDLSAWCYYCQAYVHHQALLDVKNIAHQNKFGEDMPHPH

How the values were obtained:
HDAC6 = HDAC6 (Homo sapiens (Human), UniProt Q9UBN7); details: Table 1, literature data; read-out: Inhibitory Potency (IC50) HDAC 6; cited from earlier work
HCT116 cells = assay: H3K18ac after 6 h pulse treatment and drug washout; type: cell-based
MDA-MB-231 cells [1] = assay: Cell cycle analysis by FACS; type: cell-based; details: MDA-MB-231, 24 h
[2] = system: Ad-MLP-Luc reporter in HCT116 cell line; assay: Ad-MLP-Luc luciferase reporter activation; type: cell-based; details: HCT116, dose-dependent
MDA-MB-231 cells [3] = details: MDA-MB-231 monolayer scratch; UF010 at 1 μM

For `CC(=O)Nc1ccc(C(=O)Nc2cc(-c3cccs3)ccc2N)cc1` [Cpd60], the pIC50 (HDAC6) is listed as less than 4.52.

For `O=C(CCCCCCC(=O)Nc1ccccc1)NO`, the “time at which histone acetylation (H3K18ac) was induced” value (HCT116 cells; HCT116, 6 h pulse exposure) was no more than 6 h, the “time up to which induced acetylation was maintained” value (HCT116 cells; HCT116, 6 h pulse then drug washout, time after drug addition) was “quickly reduced to normal levels upon the drug removal” and the cell cycle effect (MDA-MB-231 cells [1]; 1 μM) was “inhibited G1/S progression”. For the same molecule, the cell cycle effect (MDA-MB-231 cells [1]; 10 μM) was “induced a strong G2/M block”, the Ad-MLP-Luc reporter activity [2] was “dramatically increased” and the “cell migration to the denuded areas” value (MDA-MB-231 cells [3]) was “did not significantly affect”.
